Earlier results as cited in patent US6417010B1, “Methods and apparatus for synthesizing labeled combinatorial chemistry libraries” (Discovery Partners International, priority 1993, dated 2002).

Target: Monoclonal antibody 3E7
Conditions: solution assays, MAb 3E7; read-out: equilibrium binding constants (Kd); cited from earlier work

## Tyr-Gly-Gly-L-Phe-L-Leu [YGGFL]
  Kd: 6.6 nM
